From patent publication US20250382588A1, “CHIMERIC AAV AND USES THEREOF” (priority 2023, published 2025)

Key:
c-Fos+ cells in the SNr = assay: c-Fos staining in the SNr after CNO; format: in vivo, mice; details: AAV8R12-G88P7-rM3Ds-2A-EYFP; intraperitoneal CNO
rM3Ds = biological target: T1, rM3Ds (Rattus norvegicus, UniProt P08483, A177S/A238G/A489L/DEL261-437/DEL441-478/E258S/I253V/I483M/INS256[…]/K178L/K182A/K255R/K484R/K486H/L173F/L482A/M480V/R171S/R176Q/R179M/S481M/T174R/T181R/T257A/Y148C); assay: Open field and rotarod tests in 6-OHDA parkinsonian mice; format: in vivo; details: AAV8R12-G88P7-rM3Ds-2A-EYFP
T1 sequence (P08483 with tags, fused parts or gaps Y148C/R171S/L173F/T174R/R176Q/A177S/K178L/R179M/T181R/K182A/A238G/I253V/K255R/INS256[…]/T257A/E258S/DEL261-437/DEL441-478/M480V/S481M/L482A/I483M/K484R/K486H/A489L): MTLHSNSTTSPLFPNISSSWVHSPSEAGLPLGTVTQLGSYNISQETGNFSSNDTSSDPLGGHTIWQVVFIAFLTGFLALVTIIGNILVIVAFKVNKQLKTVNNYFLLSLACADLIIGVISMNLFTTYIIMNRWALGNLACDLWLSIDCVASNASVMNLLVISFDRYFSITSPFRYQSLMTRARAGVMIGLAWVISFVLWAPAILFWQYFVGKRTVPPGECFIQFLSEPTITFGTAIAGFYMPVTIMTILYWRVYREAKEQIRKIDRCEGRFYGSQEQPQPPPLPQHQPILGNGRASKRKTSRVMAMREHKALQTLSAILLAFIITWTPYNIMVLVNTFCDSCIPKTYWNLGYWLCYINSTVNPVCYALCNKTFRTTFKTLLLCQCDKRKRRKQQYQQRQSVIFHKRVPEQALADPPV
Protocol: Rodent Parkinson's disease mice models were created through bilateral injection of 6-OHDA using the same methods as described in virus injections (Example 3). A total volume of 1 ul 6-OHDA (5 mg/ml, dissolved in sterile saline containing 0.02% ascorbic acid, Sigma) was injected into the striatum at a speed of 100 nL/min. The coordinates for striatum were 0.5 mm anterior, 1.5 mm lateral, 3.2 mm ventral to the bregma. A premedication of desipramine (25 mg/kg, Sigma) was administered to animals prior to injections of 6-OHDA, in order to increase the selectivity and efficacy of 6-OHDA-induced lesions. Mice were supplemented with DietGel (ClearH2O) for one-week post-surgery. All staining and behavioral experiments were performed at least 14 days following surgery, when the amount of dopamine depletion was maximal and stable.
6-OHDA was administered bilaterally into the striatum (FIG. 13A).
6-OHDA was bilaterally injected using the same methods described for virus injections. […]
Mice were individually handled for 10-20 seconds per day for at least 5 days to habituate them to the experimenter. […] The behavioral data were analyzed with ANY-maze software (Stoelting Co.).
Mice were individually handled as described in the open field test. […] Latency to fall for each trial was automatically recorded by the apparatus. […]

[1] = test system: retrogradely labeled D1-MSNs; assay: Striatal slice whole-cell recordings of retrogradely labeled MSNs; format: cell-based, mice; details: AAV8R12-G88P7-rM3Ds-2A-EYFP; CNO 10 μM
Excerpt: Mice from different groups were anesthetized with […] isoflurane, and then decapitated. The brain was quickly extracted and placed in ice-cold N-methyl-D-glucamine (NMDG) cutting solution containing (in mM): 92 NMDG, 2.5 KCl, 25 NaHCO3, 1.25 NaH2PO4, 4.5 D-Glucose, 20 HEPES, 5 L-ascorbic acid, 3 Na-pyruvate, 2 Thiourea, 10 MgSO4, 0.5 CaCl2). The pH was adjusted to 7.2±0.1 using HCl and the osmolarity was adjusted to 305±5 mosmol/L using NMDG. The solution was bubbled with 95% O2/5% CO2 prior to use. Coronal striatum slices were cut in 250-[…] thickness with a vibratome slicer (Leica, VT1200 S), and then incubated in artificial cerebrospinal fluid (aCSF) saturated with 95% O2/5% CO2 for at least 45 min at 37° C. before recording. The aCSF contains (in mM) 125 NaCl, 1.25 KCl, 25 NaHCO3, 1.25 KH2PO4, 25 D-Glucose, 2 CaCl2) and 1 MgCl2, supplemented with 2 mM Na-pyruvate, 3 mM Myo-inositol and 0.4 mM L-ascorbic acid.
The acute striatum slice was transferred to the recording chamber with a constant perfusion of oxygenized aCSF at the rate of 3 ml/min. Neurons were visualized using an upright microscope (Olympus, BX-51) with a 40× water immersion objective at room temperature (˜25° C.). […] Neurons were quickly visualized under fluorescence microscope and then patch clamp were achieved under infrared light illumination and CCD camera. […]

**Q.** C[N+]1([O-])CCN(C2=Nc3cc(Cl)ccc3Nc3ccccc32)CC1 [CNO, clozapine N-oxide] was tested. Which “number of c-Fos+ cells in the SNr” value (c-Fos+ cells in the SNr) did it give?
**A.** didn't increase the number of c-Fos+ cells

**Q.** What about the “motor skill in rotor-rod/rotarod test” value (rM3Ds; CNO) of the same compound?
**A.** partially rescued the motor skill deficit

**Q.** And the “spontaneous movement in an open field” value (rM3Ds; systemic CNO)?
**A.** drastically reversed the dyskinesia-like phenotype

**Q.** What about the “excitability of labeled striatal MSNs” value [1] of the same compound?
**A.** enhancement in the excitability
